Legend:
[1] = Size, polydispersity index and zeta potential determination (Malvern Zetasizer); format: physicochemical; conditions: compound encapsulated in zein core-shell particles
Procedure: Nanoparticles (2 mg) and micelles (2 mg) were dispersed in 2 ml of purified water and bath sonicated for 1 min. They were then centrifuged at 10000 rpm for 5 min and diluted 50 times with distilled water. About 50 μl of the nanoemulsion was taken and dilated to 1 mL using distilled water. A liposome dispersion was diluted 100 times using purified water and probe sonicated for 1 min using 20% amplitude. The sizes, polydispersity indexes, and zeta potentials, were measured with a Malvern Zetasizer.
Nanoparticles (2 mg) were dispersed in 1 ml of purified water and probe sonicated for 1 min using 20% amplitude. Subsequently, the sonicated particles were diluted 10 times with distilled water and properties were measured using a Malvern Zetasizer.
Size, polydispersity index and zeta potential determination: nanoparticles (50 μl), nanoemulsions (squalene) (50 μl) and nanomicelles (2 mg) were dispersed in 2 ml of purified water separately, vortex for 1 min. Further, the size, polydispersity index and zeta potential were measured with a Malvern Zetasizer.

[2] = Encapsulation (entrapment) efficiency; format: physicochemical; conditions: compound encapsulated in zein core-shell particles
Procedure: Detection wavelength: 340 nm; Injection volume: 50 μl: Run time: 10 min. […] The resulting solution was centrifuged at 5000 rpm for 5 min. […] The resulting solution was centrifuged 5000 rpm for 5 min. […] Further the size was much more uniform in case of nanoemulsions as evidenced from the low polydispersity index (PDI). The zeta potential was high in case of nanoemulsions signifying the high physical stability of these nanocarriers. […] In vitro release of MTX from the formulations in phosphate buffer (pH 7.4) was studied using UV-spectrophotometry. […] Benzoyl peroxide content was measured using HPLC.

Q: With Dextran FITC as the substance, how does the “Particle Size” value [1] read?
A: 89 ± 12 nm

Q: And the “Encapsulation Efficiency” value [2]?
A: 79 ± 8%
